Values of other authors in PMC8691714 (Cancer Research Communications, 2021).
Read-outs that look alike come from different tables or passages of the source.

Details: cited from earlier work

C=CC(=O)N1CCC[C@@H](n2nc(-c3ccc(Oc4ccccc4)cc3)c3c(N)ncnc32)C1 [Ibrutinib]
interindividual pharmacokinetic variability (healthy volunteers, ibrutinib with itraconazole, ref [8]): 55% | interindividual pharmacokinetic variability (healthy volunteers, ibrutinib without itraconazole, ref [8]): 104% | interindividual pharmacokinetic variability (ibrutinib combined with ketoconazole, ref [7]): 20% | interindividual pharmacokinetic variability (ibrutinib without ketoconazole, ref [7]): 40%
